Source: ChEMBL document CHEMBL2346585, “Novel 1,3,4-oxadiazole thioether derivatives targeting thymidylate synthase as dual anticancer/antimicrobial agents” (Bioorg Med Chem, 2013)

Experiment: Inhibition of Escherichia coli thymidylate synthase by spectrophotometric analysis

IC50: 5.7 µM
Structure (SMILES): Cc1nc(=O)c2cc(CN(C)c3ccc(C(=O)N[C@@H](CCC(=O)O)C(=O)O)s3)ccc2[nH]1 [RALTITREXED]
